Earlier results in patent US20150313892A1, “PHARMACEUTICAL COMPOSITIONS FOR TREATING PAIN ASSOCIATED WITH DYSMENORRHEA” (priority 2014, published 2015).

Amino acid sequences for entries named in this document (tags omitted).
UniProt P35372, whole entry: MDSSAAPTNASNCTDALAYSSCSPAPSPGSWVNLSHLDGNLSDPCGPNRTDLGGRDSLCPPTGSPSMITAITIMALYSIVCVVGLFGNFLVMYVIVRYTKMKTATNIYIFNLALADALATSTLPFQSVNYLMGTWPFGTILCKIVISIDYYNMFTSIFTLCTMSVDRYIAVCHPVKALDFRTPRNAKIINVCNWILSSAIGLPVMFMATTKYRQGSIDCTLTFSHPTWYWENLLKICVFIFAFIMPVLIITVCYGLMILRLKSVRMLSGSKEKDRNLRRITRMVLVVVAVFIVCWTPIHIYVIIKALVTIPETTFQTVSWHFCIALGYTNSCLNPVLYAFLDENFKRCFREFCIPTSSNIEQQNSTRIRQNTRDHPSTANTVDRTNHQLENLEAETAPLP

Columns and labels:
μ-opioid = μ-opioid (Homo sapiens, UniProt P35372); settings: read-out: Binding Constant Ki, μ-opioid; cited from earlier work
[1] = versus tramadol; cited from earlier work

Substance: O-desmethyltramadol [(±) M1]
- pKi (μ-opioid): 7.92
- analgesic potency relative to the parent drug [1]: at least twice

pKi: −log10 of the molar value.
